# Yeast mating assay 2: variants of the scFv Ab-95

Antigen: PDVDLGDISGINAS, a 14-residue peptide of the SARS-CoV-2 spike HR2 region.

The variants keep the heavy chain, the linker and the frameworks of Ab-95 (scFv order VH, the linker GGGGSGGGGSGGGGS, VL).
VH: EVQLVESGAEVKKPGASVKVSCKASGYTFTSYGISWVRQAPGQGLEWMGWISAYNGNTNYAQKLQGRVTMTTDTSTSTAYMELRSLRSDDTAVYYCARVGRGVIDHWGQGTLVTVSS
VL: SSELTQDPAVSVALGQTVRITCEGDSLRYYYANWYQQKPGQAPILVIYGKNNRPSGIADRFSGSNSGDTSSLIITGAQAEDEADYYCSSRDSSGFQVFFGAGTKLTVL

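The library (AAYL52) carries one to three amino acid substitutions per variant, with no insertions or deletions. Affinity was read by AlphaSeq, a pooled yeast mating assay with surface-displayed partners. The frequency of each diploid, read from paired DNA barcodes, reflects how well the two displayed proteins bind. Read counts were normalised to the haploid input and turned into Kd by a linear fit to BCL2-family pairs of known affinity, for each replicate. The assay was run in three technical replicates.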

Changes read parent residue, position, new residue, counted from the first residue of the VL shown.
Every variant below is changed at S55 of the VL (sequential numbering).
The read-out is the apparent dissociation constant on a log10 scale (nM): the lower, the stronger.
Averages over replicates are reported, and they cover detected replicates only.
Where no diploid with the target was found in that replicate, the entry reads "nd": below detection, most likely a poor binder, though not proof of it.

Variant R53H+S55Q+R90S showed 4.91, 2.85, nd (mean 3.88; controls 5 of 9).
Variant E23I+S55G+S92Y showed 2.59, 3.37, 2.93 (mean 2.97; controls 1 of 9).
Variant E23K+D25R+S55Q showed 2.38, 2.09, 2.14 (mean 2.20; controls 3 of 9).
Variant S55L+R90A+S92T showed 5.09, nd, 2.80 (mean 3.94; controls 4 of 9).
Variant S55D+F95Q+F98C showed 4.07, 3.87, 3.81 (mean 3.92; controls 4 of 9).
Variant R53S+S55Y+F95R showed 3.22, 3.18, nd (mean 3.20; controls 2 of 9).
Variant S26T+Y30L+S55R showed 3.95, 3.56, 3.13 (mean 3.55; controls 0 of 9).
Variant Y29A+N51W+S55Q showed 3.45, nd, 3.39 (mean 3.42; controls 3 of 9).
Variant K50R+S55P+S92D showed nd, 5.32, 3.00 (mean 4.16; controls 3 of 9).
Variant S55L+R90L+F98H showed 5.43, 2.75, 4.25 (mean 4.14; controls 1 of 9).
Variant Y29D+R53F+S55N showed nd, 3.92, nd (controls 2 of 9).
Variant A32F+S55D+G94V showed nd, nd, nd (controls 0 of 9).
Variant E23R+G24E+S55Q showed 5.20, nd, nd (controls 4 of 9).
Variant D25Y+A32H+S55Y showed nd, 2.78, nd (controls 1 of 9).
Variant Y31M+S55N+D91A showed 2.87, 2.74, 2.45 (mean 2.69; controls 1 of 9).
Variant G49S+K50E+S55W showed 2.92, nd, nd (controls 3 of 9).
Variant S26I+P54E+S55N showed nd, nd, nd (controls 0 of 9).
Variant S55W+D91T showed nd, nd, nd (controls 1 of 9).
Variant Y31N+S55G+S88L showed 1.86, 1.78, 1.09 (mean 1.58; controls 1 of 9).
Variant G24W+N33D+S55A showed nd, nd, 3.74 (controls 2 of 9).
Variant N51W+S55C+S93F showed nd, 5.58, nd (controls 3 of 9).
Variant N33L+S55A+Q96V showed 3.44, 4.16, nd (mean 3.80; controls 3 of 9).
Variant Y31H+S55F showed 1.75, 1.70, 1.33 (mean 1.59; controls 2 of 9).
Variant Y30P+S55F+F98Q showed 1.69, 1.52, 1.48 (mean 1.57; controls 3 of 9).
Variant Y30P+N33I+S55L showed 2.20, 2.54, 2.78 (mean 2.51; controls 4 of 9).
Variant Y29H+S55W showed 2.30, 2.32, 3.09 (mean 2.57; controls 2 of 9).
Variant Y30T+S55Y+D91C showed 1.63, 1.67, 1.71 (mean 1.67; controls 6 of 9).
Variant S55Y+R90C+Q96V showed 5.53, 4.57, nd (mean 5.05; controls 2 of 9).
Variant Y31I+S55C+S93F showed nd, 5.35, nd (controls 5 of 9).
Variant R53G+S55R+S93C showed nd, nd, 4.75 (controls 1 of 9).
Variant S55G+S93Y+Q96W showed 2.12, 1.68, 2.05 (mean 1.95; controls 4 of 9).
Variant N52I+S55F+S89C showed 2.39, 2.72, 3.65 (mean 2.92; controls 2 of 9).
Variant K50E+S55Y+F95I showed nd, nd, 3.99 (controls 1 of 9).
Variant N33C+N52Y+S55E showed 4.37, nd, nd (controls 4 of 9).
Variant G24S+N51H+S55H showed 3.42, nd, nd (controls 4 of 9).
Variant G49M+K50S+S55A showed 3.50, 3.87, 3.93 (mean 3.77; controls 7 of 9).
Variant S55D+S92F+F95V showed 3.99, 2.57, 2.59 (mean 3.05; controls 2 of 9).
Variant R28A+Y31K+S55E showed 1.77, 1.49, 1.44 (mean 1.57; controls 3 of 9).
Variant G49H+S55I+S92E showed 2.78, nd, nd (controls 0 of 9).
Variant S55A showed 1.94, 1.87, 1.79 (mean 1.87; controls 1 of 9).

Background: pairings of library AAYL52 with three empty control strains gave a value in 28% of cases (median 3.91, 5th percentile 2.90). Values in that range, when seen in few replicates, are hard to tell from nonspecific mating. The control count says in how many pairings with the empty strains this scFv gave a signal.

The measurements come from Engelhart et al. 2022 (doi:10.1038/s41597-022-01779-4) through the FLAb antibody collection.